Source: patent US6136552A, “High-affinity salicylic acid-binding protein and methods of use” (Rutgers, The State University of New Jersey, priority 1997, dated 2000)

Key:
[1] = test system: PR-1 gene expression; test: Induction of PR-1 gene expression in leaf discs (northern blot); type: cell-based, tobacco; settings: Nicotiana tabacum, foliar, 24 hours after treatment, read-out: concentration giving 15-fold induction of PR-1 gene expression
Source text: As a control, rRNA present in each lane is also shown. FIG. 7B is a graph showing quantification of the fold-induction of the PR-1 mRNA levels after SA (.cndot.) and BTH (.smallcircle.) treatment. The levels of PR-1 mRNA were normalized to the amounts of rRNA. The rRNA-normalized levels of PR-1 mRNA obtained after infiltration of leaf discs with SA or BTH were divided by the rRNA-normalized level of PR-1 mRNA obtained after infiltration with water only to determine the fold induction. The data presented are from a single experiment; two additional experiments were done. The maximum-fold induction of the PR-1 genes and the concentrations of SA and BTH required to reach approximately 50% of this value varied somewhat among the three experiments, depending on the age of the plant. In the three experiments, the concentrations of BTH needed to reach approximately 50% induction were 30- to 40-fold lower than those for SA.

[2] = molecular target: T1, (NH4)2 SO4 fractions of tobacco leaf soluble protein extract (Nicotiana tabacum, UniProt Q6RYA0); test: Binding of [3H]SA to various (NH4)2SO4 fractions; settings: 0.1 μM [3H]SA
T1 construct: Soluble proteins were extracted from the powdered leaves; from tissue; host or cells: tobacco leaf (cv. Xanthi nc), ammonium sulfate fractions
T1 sequence (Q6RYA0 1-260): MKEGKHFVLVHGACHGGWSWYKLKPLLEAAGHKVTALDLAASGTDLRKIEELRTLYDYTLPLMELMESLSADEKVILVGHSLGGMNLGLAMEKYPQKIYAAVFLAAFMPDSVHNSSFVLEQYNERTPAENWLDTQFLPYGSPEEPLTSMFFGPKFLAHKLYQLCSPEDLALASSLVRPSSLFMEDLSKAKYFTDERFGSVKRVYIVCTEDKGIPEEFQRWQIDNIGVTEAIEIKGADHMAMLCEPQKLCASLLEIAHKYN
Protocol: (§1) Leaf extraction. Tobacco leaves from 7-8 week old plants (100 g) were deribbed and ground to a fine powder in liquid nitrogen. All subsequent procedures were carried out at 4° C. Soluble proteins were extracted from the powdered leaves by incubating for 30 minutes in 400 mL buffer A containing 20 mM sodium citrate pH 6.5, 5 mM MgSo4, 1 mM EDTA, 14 mM β-mercaptoethanol, and 1% (w/w) polyvinylpyrrolidone (PVP). Cell debris was removed by centrifugation at 23,000 g for 25 minutes and the supernatant was collected by filtration through two layers of Miracloth (Calbiochem). In some preparations the membrane fraction was removed by centrifugation at 85,000 g for 1 hour. Soluble proteins were precipitated from the crude extract with (NH4)2 SO4 adjusted sequentially to 25%, 50%, 75%, and 100% saturation, incubated for 30 minutes, and centrifuged at 23,000 g for 25 minutes. Pellets from each (NH4)2 SO4 fraction were dissolved in 5 mL buffer A and dialyzed twice in 4 L of buffer A overnight. The four (NH4)2 SO4 fraction extracts were stored on ice before use. Catalase activity in the extract was measured using an O2 evolution assay as described by Takahashi et al. (1997). Protein concentration of each extract was measured according to Bradford (Bradford, 1976) using the Bio-Rad protein assay kit.
(§2) [3H]SA binding and competition assays. Extracts (50-100 μL of 0.5-50 mg/mL) from various (NH4)2 SO4 fractions were mixed with 0.1 μM [^3 H]SA in 150 μL reaction mixture and incubated on ice for 2 hours. Spin columns were prepared by packing Sephadex G25 gel (exclusion limit 5 kDa; Pharmacia), which was pre-equilibrated in buffer A, in a 1-mL disposable syringe and centrifuging at 1,000 g for 4 minutes at 4° C. This process was repeated until the bed volume of the spin column reached 1 mL. One additional spin with 125 μL buffer A was performed under the same centrifugation conditions. The binding mixture (125 μL) was loaded onto the spin column and immediately centrifuged. Bound [^3 H]SA in the flow through (100 μL) was measured in a liquid scintillation counter. When no protein extract was included in the binding mixture, the background radioactivity level was 33±3 dpm/100 μL. For the boiling treatment, the extract was boiled for 5 minutes and denatured protein aggregates were removed by centrifugation at 12,000 g for 1 minute. Nonspecific [^3 H]SA binding was estimated by carrying out the binding assay in the presence of 1 mM unlabeled SA. For the [^3 H]SA competition assay, unlabeled SA and its analogues were diluted in 20 mM sodium citrate (pH 6.5) and incubated with 50 AL extract and 0.1 MM [^3 H]SA as described above.

[3] = test system: (NH4)2 SO4 fractions of tobacco leaf soluble protein extract; test: Binding of [3H]SA to various (NH4)2SO4 fractions; settings: 0.1 μM [3H]SA
Protocol: as §1, §2

Row | Structure (SMILES) | EC (15-fold) [1] [µM] | Binding of [3H]SA, 50-75% fraction [2] | Binding of [3H]SA, 0-25% fraction [3] | Binding of [3H]SA, 25-50% fraction [3] | Binding of [3H]SA, 75-100% fraction [3]
1 | O=C(O)c1ccccc1O [SA, salicylic acid] | ~130 |  |  |  | 
2 | O=C(O)c1ccccc1O [[^3 H]SA] |  | 2.23 ± 0.24 dpm (×10^-3) per mg protein | 32.8 ± 2.1 dpm (×10^-3) per mg protein | 7.27 dpm (×10^-3) per mg protein | 0.35 ± 0.57 dpm (×10^-3) per mg protein
